These compounds were tested against T1, CCR2 (Homo sapiens, UniProt P41597) (assay: MCP-1 Receptor Binding Assay in THP-1 Cells). Conditions: read-out: MCP1B_v3 IC50.
T1 construct: host or cells: THP-1 (human monocytic cell line)
Experimental: Compounds of the invention were subjected to various representative biological tests. […] MCP-1 Receptor Binding Assay in THP-1 Cells Human monocytic cell line THP-1 cells were obtained from American Type Culture Collection (Manassas, Va., USA). The THP-1 cells were grown in RPMI-1640 (RPMI: Roswell Park Memorial Institute Medium-cell culture growth media) supplemented with 10% fetal bovine serum in a humidified 5% CO2 atmosphere at 37° C. The cell density was maintained between […].
THP-1 (cells were incubated with 0.5 nM ^125I labeled MCP-1 (Perkin-Elmer Life Sciences, Inc. Boston, Mass.) in the presence of varying concentrations of either unlabeled MCP-1 (R & D Systems, Minneapolis, Minn.) or test compound for 2 hours at 30° C. in a 96 well plate. Cells were then harvested onto a filter plate, dried, and 20 μL of Microscint 20 was added to each well. Plates were counted in a TopCount NXT, Microplate Scintillation & Luminescence Counter (Perkin-Elmer Life Sciences, Inc. Boston, Mass.). Blank values (buffer only) were subtracted from all values and drug treated values were compared to vehicle treated values. 1 μM cold MCP-1 was used for nonspecific binding.

Sequences of proteins named here, by UniProt entry; tags and fusion partners are left off. A change or cut given only in a name is not applied to a line headed by its entry.
UniProt P41597: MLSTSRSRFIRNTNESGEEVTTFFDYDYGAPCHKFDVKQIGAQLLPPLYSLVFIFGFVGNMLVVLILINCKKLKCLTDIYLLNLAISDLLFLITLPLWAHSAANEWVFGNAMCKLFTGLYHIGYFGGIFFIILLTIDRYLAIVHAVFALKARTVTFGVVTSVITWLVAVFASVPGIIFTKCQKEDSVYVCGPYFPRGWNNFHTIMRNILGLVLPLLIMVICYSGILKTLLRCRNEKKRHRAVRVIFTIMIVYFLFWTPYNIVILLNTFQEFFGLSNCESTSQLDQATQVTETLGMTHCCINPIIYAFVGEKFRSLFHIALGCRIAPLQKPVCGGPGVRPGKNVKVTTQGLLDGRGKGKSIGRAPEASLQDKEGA

Row | IC50 | Compound
1 | 780 nM | COC1COCCC1N[C@@H]1C[C@H]2CNC[C@@]2(C(=O)N2CCc3ncc(C(F)(F)F)cc3C2)C1 (relative stereo) [Example 1, ((3aR,5R,6aR)-5-(((3S*,4S*)-3-Methoxytetrahydro-2H-pyran-4-yl)amino)octahydrocyclopenta[c]pyrrol-3a-yl)(3-(trifluoromethyl)-7,8-dihydro-1,6-naphthyridin-6(5H)-yl)methanone]
2 | 30 nM | COC1COCCC1N[C@@H]1C[C@H]2CN(C(=O)/C=C/c3ccccc3)C[C@@]2(C(=O)N2CCc3ncc(C(F)(F)F)cc3C2)C1 (relative stereo) [Example 65, (E)-1-((3aR,5R,6aR)-5-(((3S*,4S*)-3-Methoxytetrahydro-2H-pyran-4-yl)amino)-3a-(3-(trifluoromethyl)-5,6,7,8-tetrahydro-1,6-naphthyridine-6-carbonyl)hexahydrocyclopenta-[c]pyrrol-2(1H)-yl)-3-phenylprop-2-en-1-one]
3 | 300 nM | COC1COCCC1N[C@@H]1C[C@H]2CN(C)C[C@@]2(C(=O)N2CCc3ncc(C(F)(F)F)cc3C2)C1 (relative stereo) [Example 97, ((3aR,5R,6aR)-5-(((3S*,4S*)-3-Methoxytetrahydro-2H-pyran-4-yl)amino)-2-methyloctahydrocyclopenta[c]pyrrol-3a-yl)(3-(trifluoromethyl)-7,8-dihydro-1,6-naphthyridin-6(5H)-yl)methanone]

Reference: US9024017B2, “Octahydro-cyclopentapyrrolyl antagonists of CCR2” (Janssen Pharmaceutica NV, priority 2012, dated 2015)
